Data taken from patent publication US6506772B1, “Substituted [1,2,4]triazolo[1,5a]pyridine derivatives with activity as adenosine receptor ligands” (Hoffmann-La Roche Inc., priority 2000, dated 2003).

Sequences of proteins named here, by UniProt entry; tags and fusion partners are left off.
UniProt P30542, whole entry: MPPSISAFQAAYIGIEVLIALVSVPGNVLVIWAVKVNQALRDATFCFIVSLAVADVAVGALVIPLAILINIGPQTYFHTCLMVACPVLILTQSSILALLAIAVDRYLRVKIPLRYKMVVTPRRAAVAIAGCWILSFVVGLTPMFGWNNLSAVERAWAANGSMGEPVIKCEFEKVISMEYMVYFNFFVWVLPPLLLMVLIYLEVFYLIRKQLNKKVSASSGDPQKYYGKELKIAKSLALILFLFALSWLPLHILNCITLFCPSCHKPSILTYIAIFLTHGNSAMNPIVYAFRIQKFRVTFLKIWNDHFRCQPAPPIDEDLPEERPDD

Tests used:
[1] = target: human adenosine A2A receptor (Homo sapiens, UniProt P29274); test: Human adenosine A2A receptor [3H]-SCH-58261 binding assay
HA1 adenosine receptor = HA1 adenosine receptor (Homo sapiens, UniProt P30542); test: Human adenosine A1 receptor affinity (Ki hA1); format: binding; conditions: read-out: Ki HA1; affinity to human adenosine A1 receptor

Q: Which selectivity (A1/A2a) ([1]; calculated ratio of the affinity to the HA1 receptor to the HA2a receptor) does the source give for Cc1ccc(-c2nc3cc(C(=O)NC4CCc5ccccc54)cc(N)n3n2)o1 (stereo not drawn) here?
A: 8.2

Q: What about the Ki ([1]; read-out: Ki HA2A, affinity to human adenosine A2A receptor) of the same molecule?
A: 39.2 nM

Q: What about the Ki (HA1 adenosine receptor) of the same molecule?
A: 320 nM
